The entries are a selection whose mix differs from that of the whole data set. Some salts or complexes appear as unconnected parts, following the source record. Active and inactive are the calls of the source.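 Rule for the calls: active = inhibition above a per-plate cutoff, the plate's mean sample inhibition plus 3 SD (cut at about 24% in these data); inactive = the rest.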
Assay: nonselective inhibitors of ATP calcium response in CHO-K1, primary screen, counter-screen for M1 antagonist project, cell-based, Fluo-8 calcium fluorescence, full deck, 1536-well (AID 602250);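 note: 0% = DMSO plus EC80 ATP and 100% = DMSO alone without ATP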
Settings: CHO-K1 parental, ATP-induced calcium, Fluo-8 fluorescence; at 3 µM; hits give high values

Row | Structure (SMILES) | inhibition
1 | COc1ccccc1OP(C)(=O)Nc1c(C)n(C)n(-c2ccccc2)c1=O (stereo unspecified) | inactive: -8.95%
2 | CCc1ccc(OP(C)(=O)Nc2cccnc2)cc1 (stereo unspecified) | inactive: -5.74%
3 | CP(=O)(Oc1ccccc1)N1CCOC1=O (stereo unspecified) | inactive: -14.2%
4 | COc1ccc(OP(C)(=O)Nc2ccc(Br)cc2)cc1 (stereo unspecified) | inactive: -0.01%
5 | CCN(CC)CC(O)COC(=O)C(O)(c1ccccc1)C1CCCCC1 (stereo unspecified) | inactive: -17.4%
6 | CN(C)C(=O)c1c([N+](=O)[O-])cc([N+](=O)[O-])cc1[N+](=O)[O-] | inactive: -11.8%
7 | CC(C)(C)c1ccc(OP(C)(=O)O)cc1 | inactive: -3.56%
8 | COc1ccccc1OP(C)(=O)Nc1ccccc1Br (stereo unspecified) | inactive: -3.95%
9 | CP(=O)(Nc1ccc(Cl)cc1)Oc1ccc(F)cc1 (stereo unspecified) | inactive: -15.4%
10 | COc1ccc(OP(C)(=O)Nc2ccccn2)cc1 (stereo unspecified) | inactive: -22.5%
11 | CN(C)CCOC(=O)C(O)(c1ccccc1)C1CCCC1 (stereo unspecified) | inactive: -5.07%
12 | COc1ccccc1OP(C)(=O)Nc1ccc(Br)cc1 (stereo unspecified) | inactive: -14.2%
13 | COc1ccccc1OP(C)(=O)Nc1ccc(C)cc1C (stereo unspecified) | inactive: 4.25%
14 | CP(=O)(Nc1ccccn1)Oc1ccccc1 (stereo unspecified) | inactive: -5.53%
15 | CCc1ccc(OP(C)(=O)O)cc1 | inactive: 15%
16 | O=[N+]([O-])c1cc([N+](=O)[O-])c(Nc2ccccn2)c([N+](=O)[O-])c1 | inactive: -10.6%
17 | Cc1c(NP(C)(=O)Oc2ccc(C(C)C)cc2)c(=O)n(-c2ccccc2)n1C (stereo unspecified) | inactive: -9.2%
18 | COc1ccccc1OP(C)(=O)Nc1ccc(C)c(C)c1 (stereo unspecified) | inactive: 9.08%
19 | COc1ccc(OP(C)(=O)Nc2ccccc2Br)cc1 (stereo unspecified) | inactive: -16.4%
20 | Cc1cc(C)cc(OP(C)(=O)Nc2cccc(C(F)(F)F)c2)c1 (stereo unspecified) | inactive: -5.16%
21 | O=C1C(O)=C([N+](=O)[O-])C(=O)C(O)=C1[N+](=O)[O-] | inactive: -12.5%
22 | CP(=O)(OCCOc1ccccc1)OCCOc1ccccc1 | inactive: -7.66%
23 | CCCCCCCCCCCCCCCC1C[N+](C)(C)CCOP(C)(=O)O1 (stereo unspecified) | inactive: -16.5%
24 | CP(=O)(Nc1ccc(Cl)cc1Cl)Oc1ccccc1 (stereo unspecified) | inactive: -13.2%
25 | CCOC(=O)c1ccc(NP(C)(=O)Oc2ccc(F)cc2)cc1 (stereo unspecified) | inactive: -7.9%
26 | COc1ccc(OP(C)(=O)Nc2ccc(SC(F)(F)F)cc2)cc1 (stereo unspecified) | inactive: -12%

Row | Structure (SMILES) | inhibition
27 | CCN(CC)CCCNc1ccccc1[N+](=O)[O-].O=[N+]([O-])c1cc([N+](=O)[O-])c(O)c([N+](=O)[O-])c1 | inactive: -11.9%
28 | CP(=O)(Nc1ccccc1)Oc1ccc(F)cc1 (stereo unspecified) | inactive: -29.3%
29 | CCCCCOc1ccc(NP(C)(=O)Oc2ccc(Cl)cc2Cl)cc1 (stereo unspecified) | inactive: -3.17%
30 | O=[N+]([O-])c1cc([N+](=O)[O-])c(OC2CCCCC2O)c([N+](=O)[O-])c1 (stereo unspecified) | inactive: -6.3%
31 | Cc1c([N+](=O)[O-])cc([N+](=O)[O-])c(Br)c1[N+](=O)[O-] | inactive: -13.1%
32 | CCN(CC)CCCOC(=O)C(O)(c1ccccc1)C1CCCCC1 (stereo unspecified) | inactive: -8.48%
33 | CP(=O)(Nc1ccccc1F)Oc1ccccc1 (stereo unspecified) | inactive: -22.3%
34 | CC(C)c1ccc(OP(C)(=O)Nc2ccc(SC(F)(F)F)cc2)cc1 (stereo unspecified) | inactive: -2.4%
35 | O=[N+]([O-])c1cc([N+](=O)[O-])c(Nc2ccc(Cl)cc2)c([N+](=O)[O-])c1 | active: 23.9%
36 | COc1ccc2c(c1O)-c1c(O)c(OC)cc3c1[C@H](C2)[N+](C)(C)CC3.O=[N+]([O-])c1cc([N+](=O)[O-])c([O-])c([N+](=O)[O-])c1[O-] | inactive: -12.2%
37 | O=C(OC1CN2CCC1CC2)c1ccc([N+](=O)[O-])cc1 (stereo unspecified) | inactive: -16.1%
38 | O=C(OCCN1CCN(CCOCc2ccccc2)CC1)C(O)(c1ccccc1)c1ccccc1 | inactive: -6.41%
39 | CCOP(C)(=S)SCC(=O)NC(C)(CC)C(=O)O (stereo unspecified) | inactive: -8.62%
40 | CP(=O)(Nc1ccc(SC(F)(F)F)cc1)Oc1ccc(F)cc1 (stereo unspecified) | inactive: -15%
41 | Cc1ccccc1NP(C)(=O)Nc1ccccc1C | inactive: 0.27%
42 | O=[N+]([O-])c1cc([N+](=O)[O-])c(C(F)(F)F)c([N+](=O)[O-])c1O | inactive: -12.6%
43 | CP(=O)(Nc1ccc2c(c1)OCCO2)Oc1ccccc1 (stereo unspecified) | inactive: -8.02%
44 | CN(C)CCOC(=O)C(O)(c1ccccc1)C1CCCCC1 (stereo unspecified) | inactive: 2.41%
45 | COc1ccc(NP(C)(=O)Oc2ccccc2OC)cc1 (stereo unspecified) | inactive: 4.26%
46 | COc1ccc(OP(C)(=O)Nc2cccc(Br)c2)cc1 (stereo unspecified) | inactive: 23.3%
47 | CN(C)C1(CNC(=O)c2ccc(Cl)c(S(N)(=O)=O)c2)CCCCC1 | inactive: -11.5%
48 | Cc1c(C(c2ccc3c(c2)OCO3)c2c(C)n(C)n(-c3ccccc3)c2=O)c(=O)n(-c2ccccc2)n1C.O=[N+]([O-])c1cc([N+](=O)[O-])c(O)c([N+](=O)[O-])c1 | inactive: -22.8%
49 | O=[N+]([O-])c1ccc(OP2(=O)COCCO2)cc1 (stereo unspecified) | inactive: -24.8%
50 | Cc1cc(-c2cccc3ccccc23)c(C)cn1.O=[N+]([O-])c1cc([N+](=O)[O-])c(O)c([N+](=O)[O-])c1 | inactive: -9.52%
51 | O=[N+]([O-])c1cc([N+](=O)[O-])c(NCC2CCS(=O)(=O)C2)c([N+](=O)[O-])c1 (stereo unspecified) | inactive: -12.6%

Reference: PubChem BioAssay AID602250 (The Scripps Research Institute Molecular Screening Center, 2012)
